From US12090225B2 (Avalyn Pharma Inc., priority 2018, dated 2024)

Test: Pattern stability screen of potential salts (40° C./75% RH, XRPD)
Assay type: physicochemical
Details: Initial pattern 1

Tartrate
XRPD pattern after 72 hrs 40° C./75% RH: 1
